Measurements as given in patent US8906911B2, “Chemokine receptor antagonists” (AbbVie Inc., priority 2012, dated 2014).

Protein sequences, listed by entry. Tags and fused reporters are not part of them. Lines headed by an entry give the natural chain unless they say otherwise; changes in a name come on top. Chains listed by the source or under a name are the forms on record and can include a tag or linker.
UniProt P41597, other isoform, or with tags, fused parts or gaps: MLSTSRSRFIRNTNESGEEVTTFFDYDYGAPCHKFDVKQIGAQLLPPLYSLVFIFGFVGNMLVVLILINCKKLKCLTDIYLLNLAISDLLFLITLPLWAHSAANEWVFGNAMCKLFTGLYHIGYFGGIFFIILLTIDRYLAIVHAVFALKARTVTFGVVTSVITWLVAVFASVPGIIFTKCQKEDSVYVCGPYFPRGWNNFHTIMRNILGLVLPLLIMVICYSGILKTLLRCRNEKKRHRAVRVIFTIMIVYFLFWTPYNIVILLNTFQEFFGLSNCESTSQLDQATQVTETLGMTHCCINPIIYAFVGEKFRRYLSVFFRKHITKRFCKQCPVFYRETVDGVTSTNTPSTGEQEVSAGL
UniProt O55193: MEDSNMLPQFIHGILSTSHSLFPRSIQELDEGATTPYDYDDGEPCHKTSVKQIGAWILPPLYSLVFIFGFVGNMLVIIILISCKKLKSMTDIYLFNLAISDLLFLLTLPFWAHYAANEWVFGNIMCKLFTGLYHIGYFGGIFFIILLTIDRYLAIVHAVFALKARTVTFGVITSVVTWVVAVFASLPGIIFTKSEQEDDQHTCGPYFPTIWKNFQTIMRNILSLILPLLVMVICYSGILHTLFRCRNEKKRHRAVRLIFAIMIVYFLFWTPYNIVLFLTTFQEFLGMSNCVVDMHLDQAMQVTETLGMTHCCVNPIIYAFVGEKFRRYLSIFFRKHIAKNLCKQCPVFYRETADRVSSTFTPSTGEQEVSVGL

Assays:
human CCR2B [1] = target: T1, human CCR2B (Homo sapiens (Human), UniProt P41597); assay: Inhibition of native agonist (human MCP-1)-induced intracellular calcium release, calcium flux assay in CHO cells expressing human CCR2B and Gα16; assay type: cell-based; details: for IC50: read-out: hCCR2B IC50
Text: (§1) CHO cells expressing human CCR2B were generated as follows. cDNA for human CCR2B (cloned from human blood) was cloned into plasmid pcDNA3.1 (from Invitrogen). The resulting plasmids were separately transfected into CHO cells expressing human Gα16 (from Molecular Devices). […] CHO cells expressing rat CCR2 were generated as follows. cDNA for rat CCR2 (cloned from rat macrophage) was cloned into plasmid pEF-flag (from Chinese Academy of Science). The resulting plasmids were transfected into CHO cells expressing human Gα16 (from […]).
Inhibition of Native Agonist-Induced Intracellular Calcium Release in Cells Expressing hCCR2B or rCCR2
Calcium flux assays were performed in CHO cells expressing human CCR2B and Gα16 coupling protein, or rat CCR2 and Gα16 coupling protein. All compounds were dissolved in DMSO and assays run at a final DMSO concentration of 0.25% (v/v). Human MCP-1 was purchased from PeproTech and used at a final assay concentration of 2 nM, while rat MCP-1 was purchased from R&D and used at a final assay concentration of 4 nM. Assays with cells expressing human CCR2B were performed with human MCP-1, while assays with cells expressing rat CCR2 were performed with rat MCP-1.
Briefly, cells were cultured overnight in a microtiter plate at 8000 per well. The next day, the resultant adherent cells were incubated in assay buffer (20 mM HEPES, pH 7.4, 0.1% bovine serum albumin, and 2.5 mM probenocid in Hank's Buffered Saline Solution) containing Calcium 4 dye (Molecular Probes) at 37° C. for 60 minutes. Calcium flux assays were performed on a FLIPR^Tetra instrument (Molecular Devices) by adding compound to the cells followed by addition of native agonist and measuring the change in fluorescence as a function of time. Maximal and minimal values for fluorescence were determined using native agonist (2 nM MCP-1) for human or rat CCR2, or buffer addition, respectively. Fluorescence values were used to calculate the percent inhibition at a given compound concentration and the data fit to a sigmoidal curve in a semi-log plot to determine IC50 values. The Kb value is calculated as Kb=IC50/(1+[agonist]/EC50), where [agonist] is the concentration of agonist used and EC50 is the agonist potency determined in the previous experiments. Mean Kb values and IC50 of the compounds assayed are reported in Table 2 and Table 3 respectively.

rat CCR2 = rat CCR2 (Rattus norvegicus (Rat), UniProt O55193); assay: Inhibition of native agonist (rat MCP-1)-induced intracellular calcium release, calcium flux assay in CHO cells expressing rat CCR2 and Gα16; assay type: cell-based
Text: as §1
Inhibition of Native Agonist-Induced Intracellular Calcium Release in Cells Expressing hCCR2B or rCCR2 […]
Briefly, cells were cultured overnight in a microtiter plate at 8000 per well. […] Calcium flux assays were performed on a FLIPR^Tetra instrument (Molecular Devices) by adding compound to the cells followed by addition of native agonist and measuring the change in fluorescence as a function of time. Maximal and minimal values for fluorescence were determined using native agonist (2 nM MCP-1) for human or rat CCR2, or buffer addition, respectively. Fluorescence values were used to calculate the percent inhibition at a given compound concentration and the data fit to a sigmoidal curve in a semi-log plot to determine IC50 values. […]

human CCR2B [2] = target: T1, human CCR2B; assay: Inhibition of [125I]-labeled MCP-1 binding to hCCR2B (radioligand binding in CHO cells); details: mean Ki; [125I]-MCP-1 50 pM; CHO cells expressing human CCR2B and Gα16
Text: as §1
Inhibition of [^125I]-Labeled MCP-1 Binding to hCCR2B
Radioligand binding assays were performed in CHO cells expressing human CCR2B and Gα16 coupling protein. […]
Compounds were serially diluted in DMSO before diluting into assay buffer (25 mM HEPES, pH 7.4, 5 mM MgCl2, 1 mM CaCl2, 0.5% BSA) with cryo preserved CHO cells expressing human CCR2B and the Gα16 coupling protein (30×10^3/well) and [^125I]-MCP-1 (50 pM). […] Membrane was counted on Microbeta counter where background binding was determined by the presence of 100 nM MCP-1 and control total binding was determined by addition of DMSO in place of the test compound. The radioactivity values (cpm) were used to calculate the percent inhibition at a given compound concentration and the data fit to a sigmoidal curve in a semi-log plot to determine IC50 values. The corresponding Ki value is calculated as follows: […]

How did the Kb (human CCR2B [1]) turn out when CO[C@@H]1COCC[C@@H]1N[C@@H]1C[C@H]2CCC[C@@]2(C(=O)N2C[C@@H]3C[C@H]2CN3c2cc(C(F)(F)F)cc(C)n2)C1 [Example 11, 1,5-anhydro-2,3-dideoxy-4-O-methyl-3-{[(2R,3aR,6aR)-3a-({(1S,4S)-5-[6-methyl-4-(trifluoromethyl)pyridin-2-yl]-2,5-diazabicyclo[2.2.1]hept-2-yl}carbonyl)octahydropentalen-2-yl]amino}-D-erythro-pentitol] was run?
Its Kb is 359 nM.

What about the IC50 (human CCR2B [1]) of the same compound?
The IC50 was 1470 nM.

How did the Kb (human CCR2B [1]) turn out when CO[C@@H]1COCC[C@@H]1N[C@@H]1C[C@H]2CCC[C@@]2(C(=O)N2C[C@@H]3C[C@H]2CN3c2cc(C(F)(F)F)ncn2)C1 [Example 13] was run?
Its Kb is 129 nM.

What about the IC50 (human CCR2B [1]) of the same compound?
The IC50 was 525 nM.

What about the Kb (rat CCR2) of the same compound?
The Kb was 24 nM.

What about the Ki (human CCR2B [2]) of the same compound?
Its Ki is 593 nM.

CO[C@@H]1COCC[C@@H]1N[C@@H]1C[C@H]2CCC[C@@]2(C(=O)N2C[C@@H]3C[C@H]2CN3c2nccc(C(F)(F)F)n2)C1 [Example 12, 1,5-anhydro-2,3-dideoxy-4-O-methyl-3-{[(2R,3aR,6aR)-3a-({(1S,4S)-5-[4-(trifluoromethyl)pyrimidin-2-yl]-2,5-diazabicyclo[2.2.1]hept-2-yl}carbonyl)octahydropentalen-2-yl]amino}-D-erythro-pentitol] was tested. Which Kb (human CCR2B [1]) did it give?
Its Kb is 48 nM.

What about the IC50 (human CCR2B [1]) of the same compound?
Its IC50 is 194 nM.

And the Kb (rat CCR2)?
Its Kb is 11 nM.

What about the Ki (human CCR2B [2]) of the same compound?
Its Ki is 261 nM.
